Source: article PMC8324913, “Development of a CNS-permeable reactivator for nerve agent exposure: an iterative, multi-disciplinary approach” (2021)
Where two headings read alike, the source gives them in different places.

Sequences of proteins named here, by UniProt entry; tags and fusion partners are left off. Residues count along the entry.
UniProt P08183, whole entry, looked up: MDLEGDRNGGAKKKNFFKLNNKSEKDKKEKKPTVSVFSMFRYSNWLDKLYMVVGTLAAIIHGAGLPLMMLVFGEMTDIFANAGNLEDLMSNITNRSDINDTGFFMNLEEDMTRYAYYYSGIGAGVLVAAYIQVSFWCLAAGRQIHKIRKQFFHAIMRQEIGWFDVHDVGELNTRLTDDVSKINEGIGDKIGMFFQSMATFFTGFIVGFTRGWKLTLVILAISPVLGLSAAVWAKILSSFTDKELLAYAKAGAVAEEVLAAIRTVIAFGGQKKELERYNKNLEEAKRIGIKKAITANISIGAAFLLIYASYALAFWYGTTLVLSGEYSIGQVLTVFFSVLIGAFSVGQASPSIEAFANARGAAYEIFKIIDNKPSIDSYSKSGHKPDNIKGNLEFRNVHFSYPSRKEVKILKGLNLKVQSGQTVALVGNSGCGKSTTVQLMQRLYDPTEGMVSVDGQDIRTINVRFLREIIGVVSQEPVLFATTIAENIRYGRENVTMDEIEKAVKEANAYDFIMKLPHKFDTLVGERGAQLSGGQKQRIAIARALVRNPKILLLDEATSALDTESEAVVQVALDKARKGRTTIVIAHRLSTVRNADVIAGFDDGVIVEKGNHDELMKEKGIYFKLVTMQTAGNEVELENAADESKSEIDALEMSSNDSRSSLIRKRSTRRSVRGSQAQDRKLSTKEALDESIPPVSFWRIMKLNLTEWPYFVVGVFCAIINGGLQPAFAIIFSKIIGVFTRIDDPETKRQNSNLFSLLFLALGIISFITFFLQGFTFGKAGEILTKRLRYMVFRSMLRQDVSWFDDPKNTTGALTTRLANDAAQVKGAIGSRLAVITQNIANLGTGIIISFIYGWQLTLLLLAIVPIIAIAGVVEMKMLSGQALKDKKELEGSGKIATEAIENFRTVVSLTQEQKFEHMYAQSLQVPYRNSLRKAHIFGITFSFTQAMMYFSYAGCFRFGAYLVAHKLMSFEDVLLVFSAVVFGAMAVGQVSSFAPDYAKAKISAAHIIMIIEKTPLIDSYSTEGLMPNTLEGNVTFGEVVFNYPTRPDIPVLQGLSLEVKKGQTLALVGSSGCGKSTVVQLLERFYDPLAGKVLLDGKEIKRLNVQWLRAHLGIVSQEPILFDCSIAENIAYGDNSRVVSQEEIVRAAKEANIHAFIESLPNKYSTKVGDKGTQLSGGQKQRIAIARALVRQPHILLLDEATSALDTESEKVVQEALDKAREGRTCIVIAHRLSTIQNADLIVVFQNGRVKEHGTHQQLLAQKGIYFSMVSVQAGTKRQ
UniProt P10635, whole entry, looked up: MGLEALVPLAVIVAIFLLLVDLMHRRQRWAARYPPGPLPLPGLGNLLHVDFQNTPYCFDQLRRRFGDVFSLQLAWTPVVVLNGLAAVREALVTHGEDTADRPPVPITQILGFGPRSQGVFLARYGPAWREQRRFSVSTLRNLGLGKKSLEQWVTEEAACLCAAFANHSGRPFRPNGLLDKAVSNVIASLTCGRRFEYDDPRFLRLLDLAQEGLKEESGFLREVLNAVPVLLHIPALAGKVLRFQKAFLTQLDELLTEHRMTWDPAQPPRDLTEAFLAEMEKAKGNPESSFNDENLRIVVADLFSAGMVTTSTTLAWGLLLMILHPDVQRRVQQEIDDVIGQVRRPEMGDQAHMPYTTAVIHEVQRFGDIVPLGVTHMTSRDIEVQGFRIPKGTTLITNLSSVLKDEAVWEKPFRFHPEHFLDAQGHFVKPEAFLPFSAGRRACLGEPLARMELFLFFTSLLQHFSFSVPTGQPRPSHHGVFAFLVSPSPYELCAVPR
UniProt P08684, whole entry, looked up: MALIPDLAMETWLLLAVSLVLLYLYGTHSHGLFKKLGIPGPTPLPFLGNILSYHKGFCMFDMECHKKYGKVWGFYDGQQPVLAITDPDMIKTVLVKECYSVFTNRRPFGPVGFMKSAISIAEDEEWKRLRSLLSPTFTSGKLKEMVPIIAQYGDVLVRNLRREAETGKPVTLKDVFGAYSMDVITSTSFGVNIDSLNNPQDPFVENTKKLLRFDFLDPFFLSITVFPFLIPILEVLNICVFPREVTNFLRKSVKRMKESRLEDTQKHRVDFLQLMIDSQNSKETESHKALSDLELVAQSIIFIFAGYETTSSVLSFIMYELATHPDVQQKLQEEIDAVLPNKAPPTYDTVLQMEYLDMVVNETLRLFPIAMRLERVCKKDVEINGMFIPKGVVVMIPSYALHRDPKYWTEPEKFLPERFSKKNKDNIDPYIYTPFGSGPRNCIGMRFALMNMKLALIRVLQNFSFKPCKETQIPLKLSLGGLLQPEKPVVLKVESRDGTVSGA
UniProt P22303, 32-614 limits assumed: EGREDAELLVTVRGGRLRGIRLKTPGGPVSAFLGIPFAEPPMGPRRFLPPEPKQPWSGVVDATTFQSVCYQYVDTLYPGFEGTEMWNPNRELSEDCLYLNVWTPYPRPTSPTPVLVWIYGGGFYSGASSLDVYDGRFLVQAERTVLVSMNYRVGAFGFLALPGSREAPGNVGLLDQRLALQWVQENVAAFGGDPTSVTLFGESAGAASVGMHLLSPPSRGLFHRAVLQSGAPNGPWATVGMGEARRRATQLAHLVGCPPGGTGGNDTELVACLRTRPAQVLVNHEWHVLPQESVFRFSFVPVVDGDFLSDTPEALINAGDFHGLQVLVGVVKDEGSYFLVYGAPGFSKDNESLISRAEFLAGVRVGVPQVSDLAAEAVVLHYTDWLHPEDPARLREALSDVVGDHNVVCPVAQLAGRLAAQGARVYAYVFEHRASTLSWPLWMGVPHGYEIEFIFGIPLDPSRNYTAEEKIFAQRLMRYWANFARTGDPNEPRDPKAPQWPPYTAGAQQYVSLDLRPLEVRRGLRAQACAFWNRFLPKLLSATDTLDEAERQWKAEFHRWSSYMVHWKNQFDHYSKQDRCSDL

Assays:
[1] = system: HCMEC/D3 monolayer; test: HCMEC brain endothelial cell traversal; conditions: for HCMEC Peff (mean): 100 μM in HBSS, apical to basolateral
[2] = molecular target: p-glycoprotein (MDR1) (Homo sapiens, UniProt P08183); test: MDR1-MDCK efflux assay; conditions: 100 μM, 180 min, 37 °C, NFR > 1 = possible substrate
[3] = PAMPA passive diffusion assay; conditions: for PAMPA Peff (mean): 100 μM in HBSS, 5 h, 25 °C, 0* = below UPLC limit of detection, shown as zero
[4] = reported for RS-194B; cited from earlier work
[5] = molecular target: CYP2D6 (Homo sapiens, UniProt P10635); test: Cytochrome P450 inhibition, fluorescent substrates; conditions: read-out: P450 inhibition IC50, CYP2D6/AMMC; fluorescent substrate AMMC, 37 °C
[6] = molecular target: CYP3A4 (Homo sapiens, UniProt P08684); test: Cytochrome P450 inhibition, fluorescent substrates; conditions: read-out: P450 inhibition IC50, CYP3A4/BFC; fluorescent substrate BFC, 37 °C
[7] = Biodistribution and brain penetration
[8] = In vivo plasma pharmacokinetics; conditions: for t1/2α: plasma, mean of six ± SE
[9] = Microsomal stability (substrate depletion); conditions: human liver microsomes, 1 hour at 37 °C; >30 min good
[10] = Plasma stability; conditions: human plasma, 1 hour at 37 °C; > 85% good
[11] = molecular target: GB-adducted recombinant human AChE (Homo sapiens, UniProt P22303); conditions: historical data, identical conditions except DMSO; cited from earlier work
[12] = reported for 2-PAM; cited from earlier work
[13] = molecular target: VX-adducted recombinant human AChE (Homo sapiens, UniProt P22303); conditions: historical data, identical conditions except DMSO; cited from earlier work
[14] = molecular target: NIMP-adducted acetylcholinesterase (Homo sapiens, UniProt P22303); test: Acetylcholinesterase reactivation screening (modified Ellman's assay); conditions: 100 µM oxime, NIMP-adducted AChE, fraction relative to control AChE

CC(C)(C)OC(=O)N1CC(NC(=O)/C=N/O)C1
HCMEC Peff (mean) [1]: 3.23e-05 cm/s
MDR1 (net flux ratio) (mean) [2]: 1.25
PAMPA Peff (mean) [3]: 1.24e-06 cm/s

O=C(/C=N/O)NC1CC1
PAMPA Peff (mean) [3]: 1.39e-06 cm/s

CC(CN1CCCCC1)NC(=O)/C=N/O (centres unmarked)
HCMEC Peff (mean) [1]: 1.11e-05 cm/s
PAMPA Peff (mean) [3]: 1.58e-07 cm/s

CCC(CN1CCCC1)NC(=O)/C=N/O (centres unmarked)
HCMEC Peff (mean) [1]: 5.86e-05 cm/s
PAMPA Peff (mean) [3]: 5.53e-08 cm/s

CN1CCCN(C(=O)/C=N/O)CC1
HCMEC Peff (mean) [1]: 7.36e-05 cm/s

CC1CCN(CC(C)NC(=O)/C=N/O)CC1 (centres unmarked)
HCMEC Peff (mean) [1]: 4.26e-05 cm/s
PAMPA Peff (mean) [3]: 3.19e-07 cm/s

O=C(/C=N/O)NCCCN1CCCCC1
HCMEC Peff (mean) [1]: 5.35e-06 cm/s
MDR1 (net flux ratio) (mean) [2]: 0.51
PAMPA Peff (mean) [3]: 3.03e-07 cm/s

O=C(/C=N/O)NCCN1CCCCCC1
HCMEC Peff (mean) [1]: 2.59e-05 cm/s
HCMEC Peff (mean) ([1]; listed as RS-194B): 2.6 ± 1.4 × 10^–5 cm/s
MDR1 (net flux ratio) (mean) [2]: 0.72
PAMPA Peff (mean) [3]: 2.15e-07 cm/s
PAMPA Peff (mean) ([3]; listed as RS-194B): 2.1 ± 0.8 × 10^–7 cm/s
brain:plasma ratio [4]: 0.04

O=C(/C=N/O)NCCN1CCOCC1
HCMEC Peff (mean) [1]: 2.49e-05 cm/s
PAMPA Peff (mean) [3]: 1.05e-07 cm/s

CC(CN(C)C)NC(=O)/C=N/O (centres unmarked)
HCMEC Peff (mean) [1]: 1.1e-05 cm/s

CC(C)(C)OC(=O)N1CCCC(NC(=O)/C=N/O)C1 (centres unmarked)
HCMEC Peff (mean) [1]: 7.53e-05 cm/s
MDR1 (net flux ratio) (mean) [2]: 3.78
PAMPA Peff (mean) [3]: 3.18e-06 cm/s

O=C(/C=N/O)N1CCN(CCc2cccs2)CC1
HCMEC Peff (mean) [1]: 5.13e-05 cm/s
PAMPA Peff (mean) [3]: 4.38e-06 cm/s

O=C(/C=N/O)N1CCN(Cc2ccc(Cl)cc2)CC1
HCMEC Peff (mean) [1]: 5.68e-05 cm/s
MDR1 (net flux ratio) (mean) [2]: 0.64
PAMPA Peff (mean) [3]: 4.67e-06 cm/s

O=C(/C=N/O)N1CCN(Cc2cccc(Cl)c2)CC1
MDR1 (net flux ratio) (mean) [2]: 1.12
PAMPA Peff (mean) [3]: 2.94e-06 cm/s

CN(C)CCNC(=O)/C=N/O
HCMEC Peff (mean) [1]: 1.79e-05 cm/s
MDR1 (net flux ratio) (mean) [2]: 0.36
PAMPA Peff (mean) [3]: 1.01e-07 cm/s

CN(C)C1CCN(C(=O)/C=N/O)C1 (centres unmarked)
HCMEC Peff (mean) [1]: 4.8e-05 cm/s

CC(C)(C)OC(=O)NC1CCN(C(=O)/C=N/O)C1 (centres unmarked)
HCMEC Peff (mean) [1]: 1.94e-05 cm/s

C[C@@H](CN1CCCc2ccccc2C1)NC(=O)/C=N/O
IC50 [5]: 1.5 µM
IC50 [6]: 7.4 µM
Cmax in the brain ([7]; 10 mg/kg IV dose): 4.25 ng/mg tissue
brain accumulation as percent of the total administered dose ([7]; 10 mg/kg LLNL-02): 0.61%
brain concentration/accumulation relative to RS-194B ([7]; 10 mg/kg, same dose level, RS-194B data ref 30): 20 times
Brain/plasma ([7]; at Tmax, single IV 20 mg/kg 14C-LLNL-02, male guinea pigs): 0.529
decrease of brain/plasma ratio over the time course ([7]; average for the 4 doses, 0.08 h–24 h): 62.7%
time of Cmax in the brain ([7]; post dose, first sampling time-point): 5 min
HCMEC Peff (mean) [1]: 3.9 ± 1.4 × 10^–5 cm/s
HCMEC Peff (mean) ([1]; listed as 1, LLNL-02): 3.9e-05 cm/s
Endothelial permeability relative to diazepam ([1]; HCMEC Peff ratio, P = 0.0003): 0.5 fold
Endothelial permeability relative to 2-PAM ([1]; HCMEC Peff ratio, P = 0.0007): 3.9 fold
t1/2 β relative to 2-PAM ([8]; longer than the range observed for 2-PAM): 2–3 times
t1/2α ([8]; single IV 1 mg/kg 14C-LLNL-02, male guinea pigs): 23.4 ± 0.6 min
t1/2α ([8]; single IV 5 mg/kg 14C-LLNL-02, male guinea pigs): 24 ± 1.2 min
t1/2α ([8]; single IV 10 mg/kg 14C-LLNL-02, male guinea pigs): 15 ± 1.8 min
t1/2α ([8]; single IV 20 mg/kg 14C-LLNL-02, male guinea pigs): 23.4 ± 3.6 min
MDR1 (net flux ratio) (mean) [2]: 5.3 ± 1.3
MDR1 (net flux ratio) (mean) ([2]; listed as 1, LLNL-02): 5.31
PAMPA Peff (mean) [3]: 3.7 ± 1.3 × 10^–6 cm/s
PAMPA Peff (mean) ([3]; listed as 1, LLNL-02): 3.73e-06 cm/s
PAMPA permeability relative to compound 23 ([3]; higher than compound 23): > 10 fold
Microsomal stability t1/2 [9]: greater than 60 min
Plasma stability (percent remaining) [10]: greater than 90%

C[C@@H](CN1CCc2ccccc2CC1)NC(=O)/C=N/O
PAMPA Peff (mean) [3]: 2.68e-06 cm/s

CC(CN1CCCCCC1)NC(=O)/C=N/O (centres unmarked)
HCMEC Peff (mean) [1]: 4.43e-05 cm/s
PAMPA Peff (mean) [3]: 1.92e-07 cm/s

O=C(/C=N/O)NC1CCC1
PAMPA Peff (mean) [3]: 2.86e-06 cm/s

CC(C)(C)OC(=O)N1CC[C@H](NC(=O)/C=N/O)C1
HCMEC Peff (mean) [1]: 3.16e-05 cm/s
MDR1 (net flux ratio) (mean) [2]: 8.90
PAMPA Peff (mean) [3]: 1.57e-06 cm/s

NCCNC(=O)/C=N/O
HCMEC Peff (mean) [1]: 8.09e-06 cm/s
MDR1 (net flux ratio) (mean) [2]: 0.40
PAMPA Peff (mean) [3]: 1.05e-07 cm/s

O=C(/C=N/O)NC1CCCC1
HCMEC Peff (mean) [1]: 6.04e-05 cm/s
MDR1 (net flux ratio) (mean) [2]: 0.97
PAMPA Peff (mean) [3]: 3.95e-06 cm/s

C[n+]1ccccc1/C=N/O
Overall reactivation rate, kr2 [11]: 1.35 ± 0.267 M⁻¹ s⁻¹
Reactivation rate, kr [11]: 0.06 ± 0.02 min⁻¹
t1/2α [12]: 18.6 min
Overall reactivation rate, kr2 [13]: 2.02 ± 0.483 M⁻¹ s⁻¹
Reactivation rate, kr [13]: 0.06 ± 0.005 min⁻¹
Fraction reactivated (t = 30 min) (mean) [14]: 0.903

O=C(/C=N/O)N1CCCN(C(=O)/C=N/O)CC1
HCMEC Peff (mean) [1]: 3.67e-05 cm/s
PAMPA Peff (mean) [3]: 1.59e-07 cm/s

CC(C)CN1CCN(C(=O)/C=N/O)CC1
MDR1 (net flux ratio) (mean) [2]: 1.27
PAMPA Peff (mean) [3]: 1.88e-06 cm/s

O=C(/C=N/O)N1CCN(CC2CCCC2)CC1
HCMEC Peff (mean) [1]: 7.24e-05 cm/s
MDR1 (net flux ratio) (mean) [2]: 0.75
PAMPA Peff (mean) [3]: 3.37e-06 cm/s

O=C(/C=N/O)N1CCC(N2CCCCC2)CC1
HCMEC Peff (mean) [1]: 5.67e-05 cm/s

O=C(/C=N/O)NCc1ccccc1
HCMEC Peff (mean) [1]: 5.49e-05 cm/s
PAMPA Peff (mean) [3]: 1.47e-06 cm/s

CCCCNC(=O)/C=N/O
HCMEC Peff (mean) [1]: 6.65e-05 cm/s
MDR1 (net flux ratio) (mean) [2]: 1.14
PAMPA Peff (mean) [3]: 6.05e-06 cm/s

CCN(CC)CC(C)NC(=O)/C=N/O (centres unmarked)
HCMEC Peff (mean) [1]: 4.55e-05 cm/s
PAMPA Peff (mean) [3]: 1.96e-08 cm/s

CC(C)(C)OC(=O)NCCNC(=O)/C=N/O
HCMEC Peff (mean) [1]: 5.11e-05 cm/s
PAMPA Peff (mean) [3]: 2.94e-07 cm/s

O=C(/C=N/O)NCCN1CCCC1
HCMEC Peff (mean) [1]: 3.14e-05 cm/s
MDR1 (net flux ratio) (mean) [2]: 0.46
PAMPA Peff (mean) [3]: 2.93e-07 cm/s
